Drawing on PubChem BioAssay AID2520 (Sanford-Burnham Center for Chemical Genomics, 2010), this text covers activation for 87 compounds.

Sequences of proteins named here, by UniProt entry; tags and fusion partners are left off.
UniProt P35414, whole entry: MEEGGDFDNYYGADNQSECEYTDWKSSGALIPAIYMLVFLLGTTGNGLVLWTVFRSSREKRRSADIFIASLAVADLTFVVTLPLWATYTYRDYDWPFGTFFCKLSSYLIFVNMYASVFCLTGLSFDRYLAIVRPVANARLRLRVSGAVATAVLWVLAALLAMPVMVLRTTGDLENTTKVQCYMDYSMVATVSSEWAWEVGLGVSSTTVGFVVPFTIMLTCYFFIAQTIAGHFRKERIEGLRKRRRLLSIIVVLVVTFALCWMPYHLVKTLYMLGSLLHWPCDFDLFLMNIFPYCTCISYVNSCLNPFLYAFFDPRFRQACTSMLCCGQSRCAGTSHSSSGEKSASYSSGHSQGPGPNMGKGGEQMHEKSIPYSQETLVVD

This is a selection; strong and weak results do not stand in their true shares. Some structures show a salt or complex split into parts, the way the source records it. Calls of active or inactive are those of the source.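 Rule for the calls: active = activation more than six SD over the plate average, tested at 20 µM; inactive = the rest.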

This assay concerns the target Apelin receptor (Homo sapiens) (UniProt P35414). Briefly: agonists of human apelin receptor APJ, primary screen, CHO-K1 cells, PathHunter beta-arrestin, luminescence (AID 2520).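 Note: 0% = DMSO alone and 100% = apelin-13 at 10 nM.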 The settings on record: at 20 µM, active compounds read high, 0% DMSO wells, 100% apelin. A digest of the protocol: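 assay system = CHO-K1 APJ beta-arrestin complementation cell line | input = cell density 1000 per well | dosing = compound 20 µM once, DMSO 1% | timing = compound 90 min 25 °C, reagent 1 h | measured by = luminescence from split beta-galactosidase complementation, Galacton Star/Emerald II substrate | read-out basis = APJ agonist activity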
`Nc1ccc2c(ccc3cccnc32)n1.O=[N+]([O-])c1cc([N+](=O)[O-])c(O)c([N+](=O)[O-])c1`: the activation is inactive: -4.16%.
Next, `CCOC(=O)c1ccc(NP(C)(=O)Oc2ccc(Cl)cc2)cc1` (configuration not stated): inactive: 2.51%.
Next, `CP(=O)(OC12CC3CC(CC(C3)C1)C2)OC12CC3CC(CC(C3)C1)C2`: inactive: -4.04%.
Consider `CC(C)(C)c1ccc(OP(C)(=O)O)cc1`, for which the activation is inactive: -0.739%.
In the case of `COc1ccccc1OP(C)(=O)Nc1ccccc1Br` (configuration not stated), the activation was inactive: -1.19%.
For `CP(=O)(Nc1ccc(Cl)cc1)Oc1ccc(F)cc1` (configuration not stated), the activation was inactive: -4.79%.
`CN(C)C(=O)c1c([N+](=O)[O-])cc([N+](=O)[O-])cc1[N+](=O)[O-]`: the activation is inactive: 1.88%.
Under `COc1ccc(OP(C)(=O)Nc2ccc(Br)cc2)cc1` (configuration not stated) stands inactive: 0.738%; under `CCN(CC)CC(O)COC(=O)C(O)(c1ccccc1)C1CCCCC1` (configuration not stated), inactive: 0.565%; under `O=C(OCCCN1CCCC1)C(O)(c1ccccc1)C1CCCCC1` (configuration not stated), inactive: -1.12%.
Under `COc1ccccc1OP(C)(=O)Nc1c(C)n(C)n(-c2ccccc2)c1=O` (configuration not stated) stands inactive: 2.45%; under `CCc1ccc(OP(C)(=O)Nc2cccnc2)cc1` (configuration not stated), inactive: -0.729%; under `CP(=O)(Oc1ccccc1)N1CCOC1=O` (configuration not stated), inactive: -3.59%.
Under `O=[N+]([O-])c1cc([N+](=O)[O-])c(Nc2ccccn2)c([N+](=O)[O-])c1` stands inactive: -2.24%; under `Cc1c(NP(C)(=O)Oc2ccc(C(C)C)cc2)c(=O)n(-c2ccccc2)n1C` (configuration not stated), inactive: -3.43%.
For `COc1ccccc1OP(C)(=O)Nc1ccc(C)cc1C` (configuration not stated), the activation was inactive: 0.288%.
`CP(=O)(Nc1ccccn1)Oc1ccccc1` (configuration not stated): the activation was inactive: -2.93%.
Turning to `CCc1ccc(OP(C)(=O)O)cc1`, the activation was inactive: -2.26%.
As to `COc1ccccc1OP(C)(=O)Nc1ccc(Br)cc1` (configuration not stated), the activation was inactive: -0.681%.
Turning to `COc1ccc(OP(C)(=O)Nc2ccccn2)cc1` (configuration not stated), the activation was inactive: -2.12%.
As for `CN(C)CCOC(=O)C(O)(c1ccccc1)C1CCCC1` (configuration not stated), the activation was inactive: -2.17%.
Under `Cc1nc2ccc3ccccc3c2o1.O=[N+]([O-])c1cc([N+](=O)[O-])c(O)c([N+](=O)[O-])c1` stands inactive: 1.97%.
Turning to `CP(=O)(OCCOc1ccccc1)OCCOc1ccccc1`, the activation was inactive: -4.01%.
Next, `CP(=O)(Nc1ccc(Cl)cc1Cl)Oc1ccccc1` (configuration not stated): inactive: -0.904%; `Cc1cc(C)cc(OP(C)(=O)Nc2cccc(C(F)(F)F)c2)c1` (configuration not stated): inactive: -1.3%; `COc1ccccc1OP(C)(=O)Nc1ccc(C)c(C)c1` (configuration not stated): inactive: -0.686%.
Next, `COc1ccc(OP(C)(=O)Nc2ccccc2Br)cc1` (configuration not stated): inactive: -3.69%; `CCN(CC)CCCOC(=O)C(O)(c1ccccc1)C1CCCCC1` (configuration not stated): inactive: -2.43%.
On to `CP(=O)(Nc1ccccc1)Oc1ccc(F)cc1` (configuration not stated), for which the activation was inactive: -0.0698%.
Under `O=[N+]([O-])c1cc([N+](=O)[O-])c(OC2CCCCC2O)c([N+](=O)[O-])c1` (configuration not stated) stands inactive: -0.0306%.
Turning to `CCCCCOc1ccc(NP(C)(=O)Oc2ccc(Cl)cc2Cl)cc1` (configuration not stated), the activation is inactive: -2.33%.
Next, `CCOC(=O)c1ccc(NP(C)(=O)Oc2ccc(F)cc2)cc1` (configuration not stated): inactive: -3.73%.
Under `COc1ccc(OP(C)(=O)Nc2ccc(SC(F)(F)F)cc2)cc1` (configuration not stated) stands inactive: -3.55%; under `O=C(OC1CN2CCC1CC2)c1ccc([N+](=O)[O-])cc1` (configuration not stated), inactive: -0.429%; under `O=C(OCCN1CCN(CCOCc2ccccc2)CC1)C(O)(c1ccccc1)c1ccccc1`, inactive: -0.93%.
On to `COc1ccc2c(c1O)-c1c(O)c(OC)cc3c1[C@H](C2)[N+](C)(C)CC3.O=[N+]([O-])c1cc([N+](=O)[O-])c([O-])c([N+](=O)[O-])c1[O-]`, for which the activation was inactive: 2.49%.
Under `CP(=O)(Nc1ccccc1F)Oc1ccccc1` (configuration not stated) stands inactive: -3.23%; under `CC(C)c1ccc(OP(C)(=O)Nc2ccc(SC(F)(F)F)cc2)cc1` (configuration not stated), inactive: -0.814%.
Next, `CP(=O)(Nc1ccc2c(c1)OCCO2)Oc1ccccc1` (configuration not stated): inactive: 0.12%.
Under `Cc1ccccc1NP(C)(=O)Nc1ccccc1C` stands inactive: 3.17%; under `CP(=O)(Nc1ccc(SC(F)(F)F)cc1)Oc1ccc(F)cc1` (configuration not stated), inactive: 0.955%; under `CCOP(C)(=S)SCC(=O)NC(C)(CC)C(=O)O` (configuration not stated), inactive: 5.79%.
Turning to `O=[N+]([O-])c1cc([N+](=O)[O-])c(NCC2CCS(=O)(=O)C2)c([N+](=O)[O-])c1` (configuration not stated), the activation was inactive: 5.68%.
Under `COc1ccc(OP(C)(=O)Nc2cccc(Br)c2)cc1` (configuration not stated) stands inactive: -7.08%; under `CN(C)CCOC(=O)C(O)(c1ccccc1)C1CCCCC1` (configuration not stated), inactive: -1.67%.
Turning to `COc1ccc(NP(C)(=O)Oc2ccccc2OC)cc1` (configuration not stated), the activation was inactive: -1.23%.
Under `COc1ccccc1OP(C)(=O)Nc1c(C)cccc1C` (configuration not stated) stands inactive: -1.24%.
Under `CN1CCCCC1COC(=O)C1(O)c2ccccc2CCc2ccccc21` (configuration not stated) stands inactive: -4.17%; under `CP(=O)(Nc1ccc(SC(F)(F)F)cc1)Oc1ccccc1` (configuration not stated), inactive: -0.62%; under `CCCOc1ccc(NP(C)(=O)Oc2ccc(Cl)cc2)cc1` (configuration not stated), inactive: -2.43%.
Under `CCOC(=O)C(CC)C1=NC(C)(C)Cc2ccccc21.O=[N+]([O-])c1cc([N+](=O)[O-])c(O)c([N+](=O)[O-])c1` (configuration not stated) stands inactive: 0.302%; under `O=[N+]([O-])c1cc([N+](=O)[O-])c(Nc2nnnn2CCO)c([N+](=O)[O-])c1`, inactive: -9.62%.
For `CC1=C2N=C(C=C3N=C(C(C)=C4[N-][C@@](C)([C@@H]5N=C1[C@](C)(CCC(=O)NC[C@@H](C)OP(=O)([O-])O[C@H]1[C@@H](O)[C@@H](n6cnc7cc(C)c(C)cc76)O[C@@H]1CO)[C@H]5CC(N)=O)[C@@](C)(CC(N)=O)[C@@H]4CCC(N)=O)[C@@](C)(CC(N)=O)[C@@H]3CCC(N)=O)C(C)(C)[C@@H]2CCC(N)=O.[C-]#N.[Co+3]`, the activation is inactive: -10.8%.
Consider `O=[N+]([O-])c1cc([N+](=O)[O-])c(-c2cnn(-c3ccccc3)c2)c([N+](=O)[O-])c1`, for which the activation is active: 20.6%.
Next, `Cc1nc2ccc3ccccc3c2s1.O=[N+]([O-])c1cc([N+](=O)[O-])c(O)c([N+](=O)[O-])c1`: inactive: -9.46%; `O=[N+]([O-])c1cc([N+](=O)[O-])c(-n2nnc3ccccc32)c([N+](=O)[O-])c1`: inactive: 0.624%.
On to `Cc1ccc(C)c(NP(C)(=O)Oc2ccccc2)c1` (configuration not stated), for which the activation is inactive: -0.101%.
Under `CP(=O)(Nc1cccc(Br)c1)Oc1ccccc1` (configuration not stated) stands inactive: -2.56%; under `Cc1cc(C)cc(OP(C)(=O)Nc2ccccn2)c1` (configuration not stated), inactive: -2.14%; under `COc1ccccc1OP(C)(=O)Nc1cccc(Br)c1` (configuration not stated), inactive: -3.33%.
With `CCOC(=O)c1ccc(NP(C)(=O)Oc2cc(C)cc(C)c2)cc1` (configuration not stated), the activation is inactive: -0.0284%.
Under `Cc1cc(C)cc(OP(C)(=O)Nc2ccc(C)cc2C)c1` (configuration not stated) stands inactive: 0.596%; under `CC1=NCCc2c1[nH]c1ccccc21.O=[N+]([O-])c1cc([N+](=O)[O-])c(O)c([N+](=O)[O-])c1`, inactive: 0.352%; under `O=C(O)c1cccc(Nc2c([N+](=O)[O-])cc([N+](=O)[O-])cc2[N+](=O)[O-])c1`, inactive: -5.71%.
Under `Cc1ccc(NP(C)(=O)Oc2ccccc2)c(C)c1` (configuration not stated) stands inactive: 0.758%; under `COc1ccccc1OP(C)(=O)Nc1ccc(C)cc1` (configuration not stated), inactive: -1.76%.
Turning to `CCOC(=O)c1ccc(NP(C)(=O)Oc2ccccc2)cc1` (configuration not stated), the activation was inactive: -0.0372%.
Consider `Cc1cc(C)cc(OP(C)(N)=O)c1` (configuration not stated), for which the activation is inactive: -2.22%.
On to `COc1ccc(OP(C)(=O)Nc2cccc(F)c2)cc1` (configuration not stated), for which the activation is inactive: 2.4%.
For `COc1ccccc1OP(C)(=O)Nc1cc(Cl)ccc1C` (configuration not stated), the activation is inactive: -3.06%.
Under `O=[N+]([O-])c1cc([N+](=O)[O-])c(Nc2cccnc2)c([N+](=O)[O-])c1` stands inactive: -2.46%; under `Cc1cccc(C)c1OP(C)(N)=O` (configuration not stated), inactive: -2.56%; under `CC(C)(C)c1ccc(OP(C)(=O)Nc2ccc(SC(F)(F)F)cc2)cc1` (configuration not stated), inactive: -2.24%.
In the case of `CCN(CC)CCCOC(=O)C(O)(c1ccccc1)c1ccccc1`, the activation was inactive: -4%.
Under `CCOC(=O)c1ccc(NP(C)(=O)Oc2ccc(OC)cc2)cc1` (configuration not stated) stands inactive: -0.297%; under `O=[N+]([O-])c1cc([N+](=O)[O-])c(O)c([N+](=O)[O-])c1.c1ccc(Oc2ccncc2)cc1`, inactive: -7.49%.
With `CCOP(C)(=S)SCC(=O)NC(C)C(=O)O` (configuration not stated), the activation is inactive: 3.5%.
Under `CP(=O)(Nc1ccccn1)Oc1ccc(Cl)cc1` (configuration not stated) stands inactive: 0.82%.
As to `CP(=O)(Oc1ccccc1)OC(c1ccccc1)C(F)(F)F` (configuration not stated), the activation is inactive: -2.27%.
Under `Cc1cccc(C)c1OP(C)(=O)Nc1ccc(SC(F)(F)F)cc1` (configuration not stated) stands inactive: -0.326%.
Consider `CP(=O)(Nc1ccc(SC(F)(F)F)cc1)Oc1ccc(Cl)cc1` (configuration not stated), for which the activation was inactive: -5.39%.
In the case of `Cc1cc(C)cc(OP(C)(=O)Nc2ccc(SC(F)(F)F)cc2)c1` (configuration not stated), the activation is inactive: 0.558%.
Consider `CCc1ccc(OP(C)(=O)N2CCN(c3ccc([N+](=O)[O-])cc3)CC2)cc1` (configuration not stated), for which the activation was inactive: 3.31%.
Take `CP(=O)(NC(=O)Nc1ccccc1)Oc1ccccc1` (configuration not stated): the activation is inactive: -4.74%.
Next, `CP(=S)(Nn1cnnc1)Oc1ccccc1` (configuration not stated): inactive: 4.37%.
Next, `CP(=O)(Nc1ccccc1Br)Oc1ccccc1` (configuration not stated): inactive: -0.812%.
Under `COc1ccccc1OP(C)(=O)Nc1ccccc1` (configuration not stated) stands inactive: -4.11%.
